Test results: PMC12904088, “Development of Dimethylsulfonium Probes for Broad Profiling of Methyllysine Reader Proteins” (Advanced Science, 2025)

The chains behind the UniProt entries cited, without tags or fusion partners.
UniProt P83916, whole entry, species assumed: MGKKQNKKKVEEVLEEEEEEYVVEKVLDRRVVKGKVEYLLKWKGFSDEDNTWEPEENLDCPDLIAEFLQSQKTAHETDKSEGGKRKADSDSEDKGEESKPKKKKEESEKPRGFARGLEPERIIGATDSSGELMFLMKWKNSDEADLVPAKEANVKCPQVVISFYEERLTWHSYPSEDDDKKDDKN

Target: T1, CBX1 (Homo sapiens, UniProt P83916)
T1 construct: BPTF, CBX1, and SPIN1 were expressed and purified as previously reported; made in house
Assay: Competitive crosslinking with site-specific methylated peptides
Type: biochemical
Details: 2.5 mM general probe, 100 µM competing peptide (1‐15), 10 µM CBX1, pH 7.5, UV 20 min, MS
Method: Probes were added to the crosslinking buffer (100 mM HEPES, pH 7.5), followed by the addition of reader proteins. The mixture was transferred to 96‐well plates and incubated on ice for 10 min. After UV irradiation on ice at an energy of 720 mJ cm^−2, the samples were analyzed by UPLC‐Q‐TOF‐MS. The analytical yield was calculated based on the mass peak areas as previously reported.^[ [55] ^] The yield is calculated as the peak area of the desired product divided by the sum of the peak areas of the crosslinking products and the starting material, multiplied by 100%. For crosslinking readers with general probes: The mixture of 5 mM general probes and 10 µM reader proteins (BPTF, CBX1, CDYL2) was crosslinked by the General procedure for crosslinking for 30 min. For competition assays, the mixture of 2.5 mM general probes, 100 µM H3K4me3 (1‐15) or H3K9me3 (1‐15) peptide or 7.5 mM RKGGGGGGKme3GG, 10 µM reader proteins (BPTF, CBX1) was crosslinked by the General procedure for crosslinking for 20 min (H3K4me3 or H3K9me3 for competition) or 30 min (RKGGGGGGKme3GG for competition). For Kinetics of reader crosslinking: The mixture of 0.625/1.25/2.5/5/10 mM general probe and 10 µM reader proteins was crosslinked by the General procedure for crosslinking for 20 min. […]

Row | Substance | Competition of general probe (prototype, peptide 1) crosslinking with CBX1
1 | H3K9me3 peptide: site-specific methylated competing peptide, from previous work | effectively competed
2 | H3K4me3 peptide: site-specific methylated competing peptide, from previous work | but not the H3K4me3 peptide
